Values quoted from earlier work, collected in US20040235879A1, “Method for treatment of chemotherapy-induced diarrhea” (priority 2003, published 2004).

Protein sequences, listed by entry. Tags and fused reporters are not part of them.
UniProt P33527, whole entry, species assumed: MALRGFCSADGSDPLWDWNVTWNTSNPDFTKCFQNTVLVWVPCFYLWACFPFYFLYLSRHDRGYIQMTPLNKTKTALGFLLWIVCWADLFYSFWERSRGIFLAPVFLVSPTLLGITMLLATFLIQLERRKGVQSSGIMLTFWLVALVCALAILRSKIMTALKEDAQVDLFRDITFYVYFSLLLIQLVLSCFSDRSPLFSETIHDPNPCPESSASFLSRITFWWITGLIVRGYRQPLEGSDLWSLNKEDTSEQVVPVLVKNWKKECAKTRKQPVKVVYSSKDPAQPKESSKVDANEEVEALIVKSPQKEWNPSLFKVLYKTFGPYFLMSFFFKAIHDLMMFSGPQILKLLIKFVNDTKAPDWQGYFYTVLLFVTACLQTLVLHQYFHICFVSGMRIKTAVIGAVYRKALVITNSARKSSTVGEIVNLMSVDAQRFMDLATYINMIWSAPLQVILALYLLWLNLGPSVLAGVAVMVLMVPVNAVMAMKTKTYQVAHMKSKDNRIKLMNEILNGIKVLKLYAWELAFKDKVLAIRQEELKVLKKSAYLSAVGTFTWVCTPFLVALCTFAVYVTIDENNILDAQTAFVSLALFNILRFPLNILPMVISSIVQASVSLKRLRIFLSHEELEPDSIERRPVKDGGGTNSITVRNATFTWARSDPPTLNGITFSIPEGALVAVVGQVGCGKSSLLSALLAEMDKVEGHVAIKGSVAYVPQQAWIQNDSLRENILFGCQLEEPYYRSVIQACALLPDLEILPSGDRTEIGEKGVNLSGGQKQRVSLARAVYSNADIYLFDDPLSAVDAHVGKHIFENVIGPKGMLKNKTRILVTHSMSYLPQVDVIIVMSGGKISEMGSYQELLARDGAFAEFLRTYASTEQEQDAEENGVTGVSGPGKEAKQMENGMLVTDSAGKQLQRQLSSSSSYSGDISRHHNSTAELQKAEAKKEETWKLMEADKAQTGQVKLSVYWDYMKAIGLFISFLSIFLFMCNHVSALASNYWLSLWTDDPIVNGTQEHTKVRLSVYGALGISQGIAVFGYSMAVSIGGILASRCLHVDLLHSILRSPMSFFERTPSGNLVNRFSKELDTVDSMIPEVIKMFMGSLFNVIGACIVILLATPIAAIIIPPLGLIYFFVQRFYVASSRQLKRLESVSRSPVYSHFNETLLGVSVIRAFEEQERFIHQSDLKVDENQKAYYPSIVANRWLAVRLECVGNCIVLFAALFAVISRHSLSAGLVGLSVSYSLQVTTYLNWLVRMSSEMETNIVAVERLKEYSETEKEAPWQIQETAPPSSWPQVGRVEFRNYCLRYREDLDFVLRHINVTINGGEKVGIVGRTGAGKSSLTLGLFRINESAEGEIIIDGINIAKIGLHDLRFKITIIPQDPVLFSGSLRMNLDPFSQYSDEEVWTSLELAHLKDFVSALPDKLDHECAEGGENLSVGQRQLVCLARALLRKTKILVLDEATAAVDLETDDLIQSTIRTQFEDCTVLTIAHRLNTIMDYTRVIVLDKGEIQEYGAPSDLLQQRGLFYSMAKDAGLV

Target: MRP1 (ABCC1) (Homo sapiens, UniProt P33527)
Conditions: cited from earlier work

CCc1c2c(nc3ccc(OC(=O)N4CCC(N5CCCCC5)CC4)cc13)-c1cc3c(c(=O)n1C2)COC(=O)[C@]3(O)CC [irinotecan, [1,4′-Bipiperidine]-1′-carboxylic acid (4S)-4,11-diethyl-3,4,12,14-tetrahydro-4-hydroxy-3,14-dioxo-1H-pyrano[3′,4′:6,7]indolizino[1,2-b]quinolin-9-yl ester]
substrate of MRP1 (ABCC1): substrate
